Molecular target: Kv1.5 (Homo sapiens, UniProt P22460)
Experiment: Kv1.5 inhibition, whole-cell patch-clamp, currents recorded from MEL-C88 cells
Type: cell-based
Settings: Table 1

By UniProt entry, the sequences of proteins in these tests, tags left out.
UniProt P22460, whole entry: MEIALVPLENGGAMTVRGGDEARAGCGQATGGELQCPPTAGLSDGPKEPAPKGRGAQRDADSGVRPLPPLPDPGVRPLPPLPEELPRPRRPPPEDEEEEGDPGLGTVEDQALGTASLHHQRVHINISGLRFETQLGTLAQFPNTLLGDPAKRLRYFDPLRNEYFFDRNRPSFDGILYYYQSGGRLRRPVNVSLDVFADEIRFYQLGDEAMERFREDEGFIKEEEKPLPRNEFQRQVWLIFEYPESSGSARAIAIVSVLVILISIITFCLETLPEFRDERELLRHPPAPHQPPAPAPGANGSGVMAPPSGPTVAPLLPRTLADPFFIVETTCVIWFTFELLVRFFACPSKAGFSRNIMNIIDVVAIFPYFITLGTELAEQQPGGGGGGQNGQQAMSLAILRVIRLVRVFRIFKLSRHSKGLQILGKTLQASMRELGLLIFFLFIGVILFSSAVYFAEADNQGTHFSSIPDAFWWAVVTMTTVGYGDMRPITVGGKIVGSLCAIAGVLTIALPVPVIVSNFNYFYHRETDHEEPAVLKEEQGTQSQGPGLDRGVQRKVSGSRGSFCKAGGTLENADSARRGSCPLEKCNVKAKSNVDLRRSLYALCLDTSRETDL

SMILES	Selectivity IC50 (Kv1.5)/IC50 (Kv1.3)
c1ccc(OCCCCOc2cccc3cnccc23)cc1 [Compound 18, 5-(4-Phenoxybutoxy)isoquinoline]	1
Cc1cc(=O)c2c(OCCCCOc3ccccc3)c3ccc(=O)oc3cc2o1 [Compound 59, 2,6-Dihydro-8-methyl-5-(4-phenoxybutoxy)pyrano[3,2-g][1]benzopyran-2,6-dione]	1

Reference: paper PMC2662044 (European journal of medicinal chemistry, 2008)
